## AlphaSeq binding of Ab-14 light chain variants to a spike HR2 peptide

Values reported by Li et al. 2023, doi:10.1038/s41467-023-39022-2 (FLAb copy).

Target peptide (SARS-CoV-2 spike, HR2 region): PDVDLGDISGINAS

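This is the validation round: designs drawn from the data on random variants, tested in the same kind of assay. Several design methods are mixed in this list. The assay is AlphaSeq: two haploid yeast populations carry antibody and antigen on their surface. Binding brings cells together so that they mate, and sequencing counts the barcode pairs among the diploids. Read counts were normalised to the haploid input and turned into Kd by a linear fit to BCL2-family pairs of known affinity, for each replicate. There are six technical replicates.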

Each scFv is VH, a (GGGGS)3 linker, VL, as in the parent Ab-14, and differs from it in the CDRs of the light chain only.
VH: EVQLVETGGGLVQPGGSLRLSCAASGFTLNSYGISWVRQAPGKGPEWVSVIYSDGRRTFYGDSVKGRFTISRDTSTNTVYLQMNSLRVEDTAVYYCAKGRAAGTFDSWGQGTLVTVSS
VL: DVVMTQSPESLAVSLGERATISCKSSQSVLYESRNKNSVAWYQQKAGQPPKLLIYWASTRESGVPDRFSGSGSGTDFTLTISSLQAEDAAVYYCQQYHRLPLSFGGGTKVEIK

Variants are written as CDR1, CDR2 and CDR3 of the light chain (limits as in the source). Parent: KSSQSVLYESRNKNSVA, WASTRES, QQYHRLPLS. Variants here have at most six changes. The read-out is the apparent dissociation constant on a log10 scale (nM): the lower, the stronger. Replicates are averaged; those with no signal do not enter the mean. A pair that was not seen in any replicate is written "nd"; this usually means weak binding, but a binder can also be missed. The authors' rule: three or more of the six replicates give a measured affinity, fewer mean a poor binder.

For HLSDSQLYESRNKNSVA, NASTRES, QQYHRLPLN, the assay gave 0.35 (6 of 6 replicates).
For KASQSVLYESRNKNSVA, DASTRES, QQYHRLPLD, the assay gave 0.44 (6 of 6 replicates).
For KVSQSWLMESRNKNSVA, EASTRSS, QQYHRLPLS, the assay gave 0.56 (6 of 6 replicates).
For KSSQSVLGEQRNKNSVA, SASTRES, QQYHRLPLS, the assay gave 0.56 (6 of 6 replicates).
For KSSNSVLYEERNKNSVA, WASTRES, QQYHRLPLS, the assay gave 1.51 (3 of 6 replicates).
For KLSQSGLYESRNKNSVA, DASTRES, YQYHRLPSS, the assay gave 2.58 (1 of 6 replicates).
For KYYPSGLYESRNKNSVA, QASTRES, QQYHRLPLS, the assay gave 0.27 (6 of 6 replicates).
For KESQSVLMEWRNKNSVA, DASTRES, QQYHRLPLS, the assay gave 0.16 (6 of 6 replicates).
For KSSISYLHESRNKNSVS, EAHTRES, QQYHRLPLS, the assay gave 1.53 (6 of 6 replicates).
For KSSQSVLAGSTEKNSVA, WASTRES, QQYHRLPLS, the assay gave 1.53 (6 of 6 replicates).
For KSSQPMLYESRNKNSVA, GASTRES, QQYHRLPLS, the assay gave 0.64 (6 of 6 replicates).
For KVSQSMLYESRNKNAVA, NASTRES, QQYHRLPLS, the assay gave -0.32 (6 of 6 replicates).
For HLSQSVLYESRNKNSVA, NASTRFS, QQYHRLPLS, the assay gave -0.10 (6 of 6 replicates).
For KSDQGNLYESRNKNSVA, GASTRES, QQYHRLPLS, the assay gave -0.41 (6 of 6 replicates).
For KSSQSVLYESRNKNSVA, HASTREM, QQYHRLPLS, the assay gave 1.10 (6 of 6 replicates).
For KSSDSVLRESRNKYSVA, WASTRES, QQYHRLPLS, the assay gave 4.68 (1 of 6 replicates).
For QSSQSVLYEMRNKNSVA, AASIRES, QQYHRLPLS, the assay gave 0.66 (6 of 6 replicates).
For KSSQSVLYVSRNMNSVA, EASTNFS, QQYVRLPLS, the assay gave 0.01 (6 of 6 replicates).
For KSSGSVLYESRNKNSVA, WASTRSS, QTYHRLPLS, the assay gave nd (0 of 6 replicates).
For KTPQGVLYESRNKNSVA, GASTRES, QQYHRLPLS, the assay gave 0.17 (6 of 6 replicates).
For KLQQSVGYESRNKNSVA, QASTRES, QQYHRLPLS, the assay gave 0.18 (6 of 6 replicates).
For KSSLSVLYESRNKNSVA, NASTRES, QQYHRLPLS, the assay gave 0.51 (6 of 6 replicates).
For KSSQSELEESRNKNSVA, HASTRES, QQYHRLPLA, the assay gave 0.26 (6 of 6 replicates).
For KLSQSVLYESRNKNSVA, EASTRES, QQYQRLPLS, the assay gave -0.27 (6 of 6 replicates).
For KQPQGVLYESRNKNSVA, GASVRES, QQYHRLPLS, the assay gave -0.21 (6 of 6 replicates).
For KLSQSMLYESRWKNSVA, NASQRES, QQYHRLPLS, the assay gave 0.00 (6 of 6 replicates).
For KISQSVLYESSNKNSVA, WASTRES, QQYHRLPLS, the assay gave 0.49 (6 of 6 replicates).
For KSSQSVLYESRNKNSVA, WASTRES, QQYPRLPLS, the assay gave nd (0 of 6 replicates).
For KVSQSWIYESRNKNSVA, GASTRES, QQYHRLPLS, the assay gave 0.47 (6 of 6 replicates).
For KLYQSMLYESRNKNSVA, NASTRES, QQYHRLPLS, the assay gave 1.82 (6 of 6 replicates).
For KWSMGVMGESRNKNSVA, NASTRES, QQYHRLPLS, the assay gave 0.03 (6 of 6 replicates).
For KSSQSVLYEERNKNNVA, WASTRES, QQYHRLPLS, the assay gave 0.83 (6 of 6 replicates).
For KSSQSVLYESRNKNSVA, WASTRES, QQYTRLPLS, the assay gave 2.39 (1 of 6 replicates).
For KSSHSVLHESRNKNSVA, AASTRES, QQYHRLPLS, the assay gave 1.02 (6 of 6 replicates).
For KSSMSVLFESRNKNSVA, NASTRES, QQYHRLPLS, the assay gave 0.78 (6 of 6 replicates).
For KSSQSGLYESRNKNSVA, DASTRSS, QQYHRLPLS, the assay gave 0.74 (6 of 6 replicates).
For KSQQSQLYESRNFNSVA, QASTRED, QQYHRLPLS, the assay gave 0.25 (6 of 6 replicates).
For KFSQSVYYEERNKNSVA, WASTRES, QQYYRLPLS, the assay gave 0.67 (6 of 6 replicates).
For KVSQSVLYEGENKNSVA, SASTRES, QQYHRLPLS, the assay gave 0.08 (6 of 6 replicates).
For FVSQSQLYESRNKNSVA, NGSTRES, QDYHRLPLS, the assay gave -0.27 (6 of 6 replicates).
For LLSQSTLYESRNCGSVA, WASTRES, QQYHRLPLA, the assay gave nd (0 of 6 replicates).
For KLSQSVEYESRNKNSVA, NASQRLS, QQYHRLPLS, the assay gave 0.14 (6 of 6 replicates).
For KLENSNLYESRNKNSVA, NASTRYS, QQYHRLPLS, the assay gave -0.07 (6 of 6 replicates).
For KSGQSVLYESSNKNSVA, WASTRES, QQIHRLPLS, the assay gave nd (0 of 6 replicates).
For KSSQSVLDESQNKNSVA, WASTRES, QQYHTLPLS, the assay gave 1.98 (4 of 6 replicates).
For KSLWSWLYESRNKNSVA, HASTREQ, QQYHRLPLS, the assay gave 1.39 (6 of 6 replicates).
For KSSISYLYESANTNSVA, EASTRES, QQYHRLPLS, the assay gave 0.12 (6 of 6 replicates).
For KLSQGWLYESRNKNSVA, GASTRES, QQYHRLPLS, the assay gave -0.10 (6 of 6 replicates).
For KSSQSVLYESENKNSVA, WASTVES, QSYHRLPLH, the assay gave nd (0 of 6 replicates).
For KSSQSELYESRNKNSVA, GASFRES, QQYHRLPLS, the assay gave 0.10 (6 of 6 replicates).
For KLSQSVLYESRTKNGVA, NASTRES, QQYHRLPLS, the assay gave -0.52 (6 of 6 replicates).

Nonspecific signal, from three strains lacking the peptide, appeared in 4% of pairings of all light chain designs, centred on 2.64 (5% of these signals below 1.59); values are not corrected for it. A sequence measured in both rounds can read differently, since the two assays cover different ranges. The parent sequence was in this pool as ten entries: three were never detected, three once, and four in most replicates, with averages from 0.34 to 2.37.